# Membrane permeability of cyclic peptides

Source: CycPeptMPDB (Li et al. 2023), which took these values from Kelly et al. 2021, doi:10.1021/jacs.0c06115.

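Conditions beyond the assay type are not listed; see the original paper. The list need not hold all peptides of the study. Entries at the database's floor value (log10 P of -10) are not listed.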

PAMPA is the parallel artificial membrane permeability assay, which has no cells and reads passive diffusion.
Permeability is given as log10 of P in cm/s; higher (less negative) is more permeable.

SMILES,PAMPA (log10 cm/s)
CC(=O)N1CCC[C@@H]1C(=O)N(C)[C@H](CC(C)C)C(=O)N[C@@H]1C(=O)N(C)[C@@H](CC(C)C)C(=O)N(C)[C@H](CC(C)C)C(=O)N(C)[C@H](CC(C)C)C(=O)N(C)[C@H](C)C(=O)N[C@H](CC(C)C)C(=O)N2CCC[C@H]2C(=O)O[C@@H]1C,-5.15
CC(=O)N1CCC[C@H]1C(=O)N(C)[C@@H](CC(C)C)C(=O)N[C@@H]1C(=O)N[C@H](CC(C)C)C(=O)N[C@H](CC(C)C)C(=O)N[C@H](CC(C)C)C(=O)N(C)[C@H](C)C(=O)N[C@H](CC(C)C)C(=O)N2CCC[C@H]2C(=O)O[C@@H]1C,-6.95
CC(=O)N1CCC[C@H]1C(=O)N(C)[C@@H](CC(C)C)C(=O)N[C@@H]1C(=O)N(C)[C@H](CC(C)C)C(=O)N[C@@H](CC(C)C)C(=O)N[C@@H](CC(C)C)C(=O)N(C)[C@@H](C)C(=O)N[C@H](CC(C)C)C(=O)N2CCC[C@@H]2C(=O)O[C@@H]1C,-6.11
CC(=O)N1CCC[C@@H]1C(=O)N(C)[C@@H](CC(C)C)C(=O)N[C@@H]1C(=O)N(C)[C@H](CC(C)C)C(=O)N(C)[C@@H](CC(C)C)C(=O)N(C)[C@H](CC(C)C)C(=O)N[C@@H](C)C(=O)N[C@H](CC(C)C)C(=O)N2CCC[C@H]2C(=O)O[C@@H]1C,-5.17
CC(=O)N1CCC[C@H]1C(=O)N[C@@H]1C(=O)N[C@H](CC(C)C)C(=O)N[C@H](CC(C)C)C(=O)N[C@H](CC(C)C)C(=O)N(C)[C@@H](CC(C)C)C(=O)N[C@H](C)C(=O)N[C@@H](CC(C)C)C(=O)N2CCC[C@@H]2C(=O)O[C@@H]1C,-6.16
CC(=O)N1CCC[C@H]1C(=O)N(C)[C@H](CC(C)C)C(=O)N[C@@H]1C(=O)N[C@@H](CC(C)C)C(=O)N[C@H](CC(C)C)C(=O)N(C)[C@@H](CC(C)C)C(=O)N[C@@H](C)C(=O)N[C@@H](CC(C)C)C(=O)N2CCC[C@H]2C(=O)O[C@@H]1C,-6.45
CC(=O)N1CCC[C@@H]1C(=O)N(C)[C@H](CC(C)C)C(=O)N[C@@H]1C(=O)N[C@H](CC(C)C)C(=O)N[C@@H](CC(C)C)C(=O)N(C)[C@H](CC(C)C)C(=O)N[C@@H](C)C(=O)N[C@H](CC(C)C)C(=O)N2CCC[C@H]2C(=O)O[C@@H]1C,-5.81
CC(=O)N1CCC[C@H]1C(=O)N[C@@H]1C(=O)N(C)[C@H](CC(C)C)C(=O)N(C)[C@H](CC(C)C)C(=O)N(C)[C@H](CC(C)C)C(=O)N[C@@H](CC(C)C)C(=O)N(C)[C@@H](C)C(=O)N[C@@H](CC(C)C)C(=O)N2CCC[C@@H]2C(=O)O[C@@H]1C,-5.14
CC(=O)N1CCC[C@@H]1C(=O)N(C)[C@@H](CC(C)C)C(=O)N[C@@H]1C(=O)N(C)[C@@H](CC(C)C)C(=O)N(C)[C@@H](CC(C)C)C(=O)N[C@@H](CC(C)C)C(=O)N[C@@H](C)C(=O)N[C@@H](CC(C)C)C(=O)N2CCC[C@@H]2C(=O)O[C@@H]1C,-6.61
CC(=O)N1CCC[C@H]1C(=O)N(C)[C@@H](CC(C)C)C(=O)N[C@@H]1C(=O)N[C@@H](CC(C)C)C(=O)N[C@@H](CC(C)C)C(=O)N[C@H](CC(C)C)C(=O)N(C)[C@@H](C)C(=O)N[C@H](CC(C)C)C(=O)N2CCC[C@@H]2C(=O)O[C@@H]1C,-7.68
CC(=O)N1CCC[C@@H]1C(=O)N(C)[C@H](CC(C)C)C(=O)N[C@@H]1C(=O)N[C@H](CC(C)C)C(=O)N(C)[C@H](CC(C)C)C(=O)N[C@H](CC(C)C)C(=O)N[C@@H](C)C(=O)N[C@H](CC(C)C)C(=O)N2CCC[C@H]2C(=O)O[C@@H]1C,-5.33
CC(=O)N1CCC[C@H]1C(=O)N[C@@H]1C(=O)N[C@H](CC(C)C)C(=O)N(C)[C@H](CC(C)C)C(=O)N(C)[C@@H](CC(C)C)C(=O)N[C@@H](CC(C)C)C(=O)N(C)[C@H](C)C(=O)N[C@@H](CC(C)C)C(=O)N2CCC[C@@H]2C(=O)O[C@@H]1C,-5.60
CC(=O)N1CCC[C@@H]1C(=O)N(C)[C@H](CC(C)C)C(=O)N[C@@H]1C(=O)N(C)[C@H](CC(C)C)C(=O)N[C@@H](CC(C)C)C(=O)N(C)[C@@H](CC(C)C)C(=O)N(C)[C@@H](C)C(=O)N[C@@H](CC(C)C)C(=O)N2CCC[C@H]2C(=O)O[C@@H]1C,-5.51
CC(=O)N1CCC[C@@H]1C(=O)N(C)[C@H](CC(C)C)C(=O)N[C@@H]1C(=O)N[C@@H](CC(C)C)C(=O)N(C)[C@@H](CC(C)C)C(=O)N(C)[C@@H](CC(C)C)C(=O)N(C)[C@H](C)C(=O)N[C@@H](CC(C)C)C(=O)N2CCC[C@H]2C(=O)O[C@@H]1C,-6.36
CC(=O)N1CCC[C@H]1C(=O)N(C)[C@H](CC(C)C)C(=O)N[C@@H]1C(=O)N[C@@H](CC(C)C)C(=O)N[C@@H](CC(C)C)C(=O)N(C)[C@@H](CC(C)C)C(=O)N[C@@H](C)C(=O)N[C@H](CC(C)C)C(=O)N2CCC[C@@H]2C(=O)O[C@@H]1C,-6.06
CC(=O)N1CCC[C@H]1C(=O)N(C)[C@H](CC(C)C)C(=O)N[C@@H]1C(=O)N(C)[C@@H](CC(C)C)C(=O)N(C)[C@@H](CC(C)C)C(=O)N[C@@H](CC(C)C)C(=O)N(C)[C@@H](C)C(=O)N[C@@H](CC(C)C)C(=O)N2CCC[C@@H]2C(=O)O[C@@H]1C,-5.19
CC(=O)N1CCC[C@@H]1C(=O)N(C)[C@@H](CC(C)C)C(=O)N[C@@H]1C(=O)N[C@H](CC(C)C)C(=O)N[C@H](CC(C)C)C(=O)N[C@H](CC(C)C)C(=O)N[C@H](C)C(=O)N[C@@H](CC(C)C)C(=O)N2CCC[C@@H]2C(=O)O[C@@H]1C,-6.71
CC(=O)N[C@@H]1C(=O)N2CCC[C@H]2C(=O)N(C)[C@H](CC(C)C)C(=O)N[C@H](CC(C)C)C(=O)N[C@@H](CC(C)C)C(=O)N[C@@H](CC(C)C)C(=O)N[C@@H](C)C(=O)N[C@@H](CC(C)C)C(=O)N2CCC[C@@H]2C(=O)O[C@@H]1C,-7.11

The 2 lowest values of PAMPA among the entries above:

| SMILES | PAMPA (log10 cm/s) |
|---|---|
| CC(=O)N1CCC[C@H]1C(=O)N(C)[C@@H](CC(C)C)C(=O)N[C@@H]1C(=O)N[C@@H](CC(C)C)C(=O)N[C@@H](CC(C)C)C(=O)N[C@H](CC(C)C)C(=O)N(C)[C@@H](C)C(=O)N[C@H](CC(C)C)C(=O)N2CCC[C@@H]2C(=O)O[C@@H]1C | -7.68 |
| CC(=O)N[C@@H]1C(=O)N2CCC[C@H]2C(=O)N(C)[C@H](CC(C)C)C(=O)N[C@H](CC(C)C)C(=O)N[C@@H](CC(C)C)C(=O)N[C@@H](CC(C)C)C(=O)N[C@@H](C)C(=O)N[C@@H](CC(C)C)C(=O)N2CCC[C@@H]2C(=O)O[C@@H]1C | -7.11 |